This note sets out measurements from ChEMBL document CHEMBL6103561, “Chemical dissection of selective myeloid leukemia-1 inhibitors: How they were found and evolved” (Eur J Med Chem, 2025).

Sequences of proteins named here, by UniProt entry; tags and fusion partners are left off.
UniProt P10415, whole entry: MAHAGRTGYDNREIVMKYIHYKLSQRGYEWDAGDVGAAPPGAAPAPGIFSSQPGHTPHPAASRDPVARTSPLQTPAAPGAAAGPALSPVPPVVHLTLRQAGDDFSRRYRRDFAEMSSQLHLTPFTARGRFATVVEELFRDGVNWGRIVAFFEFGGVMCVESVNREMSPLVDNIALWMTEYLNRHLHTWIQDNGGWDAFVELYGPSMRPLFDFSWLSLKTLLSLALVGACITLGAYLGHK

The test system of one assay is HL-60. Kind of assay: Cytotoxicity against human HL-60 cells assessed as reduction in cell viability incubated for 48 hrs by CCK-8 assay. To be noted: HL-60, 48 h. A general note: Tetrazolium assays rely on reduction of a dye to a coloured formazan, in cell work by metabolically active cells.
Another assay has as its system RS4-11. As to the kind of experiment: cells. To be noted: Homo sapiens, RS4-11, 48 h.
For assay [1], the target named is Apoptosis regulator Bcl-2 (Homo sapiens, UniProt P10415).

As a reminder, the IC50 is the concentration that inhibits the measured activity by half. What is called Ki is the dissociation constant of the complex between target and ligand, obtained from inhibition or displacement.

`COc1ccc(Oc2ccc(C)cc2-c2ccsc2S(=O)(=O)NCCNC(=O)Nc2cc(C(F)(F)F)cc(C(F)(F)F)c2)cc1OC`: the values for the half-maximal inhibitory concentration (IC50) in the assay with HL-60 and in the assay on RS4-11 were 5.3 µM and 5.6 µM, respectively.

Compound `Cc1cc2c(C(=O)NC[C@@H](C)c3ccccc3)c(O)c(O)cc2c(O)c1-c1c(C)cc2c(C(=O)NC[C@H](C)c3ccccc3)c(O)c(O)cc2c1O` came in with an inhibition constant Ki in assay [1] of 0.32 µM.
